Data published in patent US20070026465A1, “Method for detecting GAD65 autoreactive T cells newly diagnosed type1 diabetic patients and in the prediabetic period” (priority 2005, published 2007).

Test system: PBMC of newly diagnosed T1D patients
Assay: GAD65 HLA class I tetramer staining and flow cytometry of stimulated PBMC, T1D patients
Format: cell-based, human

IL-2: cytokine used at 25 IU/ml for basal stimulation of PBMC [reference compound]
% of CD3+/CD8+/GAD65 reactive T cells (specificity of the response): 1.89%
